In US20150335679A1, “Methods and Compositions for Treating Malignancies with Dendritic Cells” (Kiromic, LLC, priority 2014, published 2015):

test system: autologous pulsed dendritic cells; experiment: In vitro LDH cytotoxicity assay: CTL primed by matured/pulsed DC against autologous pulsed DC; settings: DC pulsed with the peptide; CTL after 10 days co-culture with autologous PBL; effector:target 40 to 20:1; FIG. 5

Row | Sequence | induction of antigen-specific cytotoxic lymphocytes (specific lysis of TAPA-presenting DC)
1 | ATEKSVKTK [PTTG1(70-78)] | successfully induced the maturation and activation of antigen-specific cytotoxic lymphocytes
2 | YADQVNIDY [AKAP-4(150-158)] | successfully induced the maturation and activation of antigen-specific cytotoxic lymphocytes
3 | ILDSSEEDK [SP17(103-111)] | successfully induced the maturation and activation of antigen-specific cytotoxic lymphocytes
4 | FTEEIEWLK [Ropporin-1(113-121)] | successfully induced the maturation and activation of antigen-specific cytotoxic lymphocytes

Where no end group is shown, it is not given here.
